We go through four compounds from ChEMBL document CHEMBL1250462, “Affinity of aporphines for the human 5-HT2A receptor: insights from homology modeling and molecular docking studies” (Bioorg Med Chem, 2010).

Amino acid sequences for entries named in this document (tags omitted).
UniProt P28223, whole entry: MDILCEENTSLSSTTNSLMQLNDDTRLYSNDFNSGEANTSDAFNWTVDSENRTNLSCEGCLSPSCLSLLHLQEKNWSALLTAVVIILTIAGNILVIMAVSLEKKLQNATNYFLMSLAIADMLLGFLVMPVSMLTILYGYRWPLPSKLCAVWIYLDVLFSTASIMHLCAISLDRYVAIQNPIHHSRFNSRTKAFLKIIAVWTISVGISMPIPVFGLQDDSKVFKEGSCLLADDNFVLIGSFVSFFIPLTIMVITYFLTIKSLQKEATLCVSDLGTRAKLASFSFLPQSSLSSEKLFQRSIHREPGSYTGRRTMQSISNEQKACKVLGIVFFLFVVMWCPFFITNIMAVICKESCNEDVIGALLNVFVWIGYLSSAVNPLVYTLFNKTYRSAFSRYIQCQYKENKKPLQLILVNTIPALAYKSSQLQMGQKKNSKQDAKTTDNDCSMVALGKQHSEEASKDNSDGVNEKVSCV

Where only a bound is given, the exact number is not on record here.

This experiment concerns the target 5-hydroxytryptamine receptor 2A (Homo sapiens) (UniProt P28223).
With `COc1cc2c(c(-c3ccc4c(c3)OCO4)c1OC)CN(C)CC2`, the Ke was above 10 µM.
To `COc1cc2c3c(c1OC)-c1cc4c(cc1CC3NCC2)OCO4` (centres undefined) belongs above 10 µM; to `CCN1CCc2cc(OC)c(OC)c3c2C1Cc1cc2c(cc1-3)OCO2` (centres undefined), above 10 µM; to `COc1cc2c(c(-c3ccc4c(c3)OCO4)c1OC)C(C)N(C)CC2` (centres undefined), above 10 µM.
